This note sets out measurements from patent US11001613B2, “TFPI inhibitors and methods of use” (priority 2008, dated 2021).

The conditions of the series: in vivo, iv, 10 mg/kg.

Consider “Ac-FQSKGNVFVDGYFERL-Aib-AKLC(PEG(40 kD))-NH2 [JBT1855]”, for which the “concentration of peptide in mouse plasma over time” value is reported as “present at high concentrations in mouse plasma at 100 minutes post-administration”.
